Laboratory results from patent US6482804B1, “Compositions and methods for delivery of genetic material” (Wyeth, priority 1997, dated 2002).

Format: physicochemical
Text: A composition according to this invention must be soluble. The endpoint of concentrations of the components of the complex is generally precipitation. It is preferred that the charge ratio of the benzylammonium-containing surfactant and the polynucleic acid be less than 1, and that excess positive charge be avoided. The conditions of the solution, and the amounts of polynucleic acid sequence and surfactant can be manipulated to increase solubility and reduce the toxicity of the surfactant concentrations. Desirably, the pH of the admixture is between 6 and 8, and more preferably between 6.2 and 7.2. The desired isotonicity, hypotonicity (<0.9% w/v NaCl or equivalent) or hypertonicity (>0.9% w/v NaCl or equivalent), can be adjusted by tonicity adjusting agents [see, e.g., Remington's, cited above]. ii. Additional studies were performed by mixing DNA at 5 mg/ml in higher concentrations of benzalkonium chloride, up to 0.04% w/v, in 10 mM citrate or phosphate buffers, pH 6.7 (±0.5), and 50 mM NaCl, substantially as described above. […] At higher than ≧0.1% w/v, benzalkonium chloride alone is soluble and forms micelles. […] Benzalkonium chloride at concentrations higher than ≧0.04% w/v under these conditions, in the presence of DNA formed a fine precipitate that contained DNA (determined by agarose gel electrophoresis of the precipitate). […]

benzalkonium chloride
concentration at which benzalkonium chloride alone is soluble and forms micelles: ≥ 0.1 % w/v
